Assays:
cell line E72 = test: Differentiation of cell line E72 in HyStem, gene expression; assay type: cell-based, human; conditions: E72 passage 11; 21 days in HyStem with 10 ng/mL TGFβ3 together with BMP4 (10 ng/mL) or BMP2 (50 ng/mL)
Protocol: (§1) HyStem-C (BioTime, Inc. Alameda, Calif.) (BioTime, Alameda, Calif., USA) was reconstituted following the manufacturer's instructions. Briefly, the HyStem component (thiol modified hyaluronan, 10 mg) was dissolved in 1.0 ml degassed deionized water for about 20 minutes to prepare a 1% w/v solution. The Gelin-S component (thiol modified gelatin, 10 mg) was dissolved in 1 ml degassed deionized water to prepare a 1% w/v solution, and PEGDA (PEG diacrylate, 10 mg) was dissolved in 0.5 ml degassed deionized water to prepare a 2% w/v solution. HyStem (1 ml, 1% w/v) was mixed with Gelin-S (1 ml, 1% w/v) immediately before use. Pelleted cells were resuspended in recently prepared HyStem:Gelin-S (1:1 v/v) mix described above. Upon the addition of crosslinker PEGDA, the cell suspension, at a final concentration of 2.0×10^7 cells/ml, was aliquoted at 25 μl aliquot four to five times into each well of 6 well plates (Corning 3516) after partial gelation to form attached beads. Following complete gelation (20 minutes), chondrogenic medium was added to each well (i.e about 4 ml/each well of a 6 well plate). […]

[1] = tested on: Bone marrow-derived mesenchymal stem cells (MSCs); test: Differentiation of bone marrow-derived MSCs in HyStem-C beads, FABP4 expression; assay type: cell-based; conditions: 14 days, 50 ng/mL BMP2, or 10 ng/mL BMP4, or 100 ng/mL BMP7
Protocol: The cell lines E72, E75, and E163, or cells with a similar pattern of gene expression, are capable of differentiating into C19orf80-expressing adipocytes when exposed to adipogenic differentiation conditions such as differentiation in HyStem-C (BioTime, Inc. Alameda, Calif.) as described with chondrogenic medium supplemented with 10 ng/mL BMP4 for 14-21 days, but without TGFβ3. […] Similarly, the lines E72, E75, E163, as well as clonal hES-derived embryonic progenitors corresponding to other anatomic locations, also differentiated into FABP4-expressing cells. However, only MSCs, E72, E75, and E163 cells induced C19orf80/betatrophin expression upon differentiation.
HyStem-C (BioTime, Inc. Alameda, Calif.) is a matrix composed of thiol-modified gelatin and thiolated hyaluronan crosslinked in vivo or in vitro with (polyethylene glycol diacrylate (PEGDA). We observed that clonal human embryonic progenitor cell lines such as those described in the present invention, could be efficiently differentiated in high-density cultures of said crosslinked collagen and hyaluronate in the following manner. HyStem-C® (BioTime, CA, USA) is reconstituted following the manufacturer's instructions. Briefly, the HyStem component (10 mg of thiol-modified hyaluronan) is dissolved in 1.0 ml of degassed deionized water for approximately 20 min to prepare a 1% w/v solution. […]

cell line E75 = test: Differentiation of cell line E75 in HyStem, gene expression; assay type: cell-based, human; conditions: E75 passage 11; 21 days in HyStem with 10 ng/mL TGFβ3 together with BMP4 (10 ng/mL) or BMP2 (50 ng/mL)
Protocol: as §1

B1: BMP2: Bone Morphogenetic Protein 2, TGF-beta superfamily member (protein, UniProt P12643 283-396, looked up)
Bone morphogenetic protein 2: QAKHKQRKRLKSSCKRHPLYVDFSDVGWNDWIVAPPGYHAFYCHGECPFPLADHLNSTNHAIVQTLVNSVNSKIPKACCVPTELSAISMLYLDENEKVVLKNYQDMVVEGCGCR
markers of endochondral ossification including COL2A1, ALPL, IBSP, and osteopontin (SPP1) (cell line E72): relatively high levels
differentiation into adipocytes as evidenced by expression of FABP4 [1]: caused the differentiation of the cells into adipocytes
markers of endochondral ossification including COL2A1, ALPL, IBSP, and osteopontin (SPP1) (cell line E75): relatively high levels

Source: patent publication US20230093399A1, “METHODS FOR GENERATING PLURIPOTENT STEM CELL-DERIVED BROWN FAT CELLS” (AgeX Therapeutics, Inc., priority 2013, published 2023)
